Only a part is listed here, and it is no random draw. Activity calls are given as the source filed them.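 How the source made its calls: active means fitted rise in melting shift crosses a set limit at or below the top valid dose tested; inconclusive means flat fit at mid-level activity, or a poor quality fit; inactive means the rest.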

Protein sequences, listed by entry. Tags and fused reporters are not part of them.
UniProt Q9HCT0, whole entry: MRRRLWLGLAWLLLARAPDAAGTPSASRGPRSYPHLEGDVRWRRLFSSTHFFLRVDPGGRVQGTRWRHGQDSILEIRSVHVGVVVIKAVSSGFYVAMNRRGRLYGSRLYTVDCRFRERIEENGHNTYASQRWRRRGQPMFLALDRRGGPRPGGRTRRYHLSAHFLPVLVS

The test has as its target Fibroblast growth factor 22 (Homo sapiens) (UniProt Q9HCT0). The test is described as follows: binders of human FGF22 protein, dose response, FGF22 synaptogenesis inhibitor project, biophysical, thermal shift, cherry-pick retest (AID 720646). To be noted: recombinant FGF22 thermal shift, SYPRO orange fluorescence; at 38 µM (top of the series).
As to `CN(Cc1cccnc1)C(=O)COc1ccc(Cl)c(Cl)c1.O=[N+]([O-])c1cc([N+](=O)[O-])c(O)c([N+](=O)[O-])c1`, the thermal shift activity is inactive: 0.026%.
`CCN(CC)CCCNc1ccccc1[N+](=O)[O-].O=[N+]([O-])c1cc([N+](=O)[O-])c(O)c([N+](=O)[O-])c1`: the thermal shift activity was inactive: -0.077%.

The record behind these values is PubChem BioAssay AID720646 (Broad Institute, 2013).
